# Measurements from PubChem BioAssay AID588795 (National Center for Advancing Translational Sciences (NCATS), 2011).
# By UniProt entry, the sequences of proteins in these tests, tags left out.
# UniProt P39748, whole entry: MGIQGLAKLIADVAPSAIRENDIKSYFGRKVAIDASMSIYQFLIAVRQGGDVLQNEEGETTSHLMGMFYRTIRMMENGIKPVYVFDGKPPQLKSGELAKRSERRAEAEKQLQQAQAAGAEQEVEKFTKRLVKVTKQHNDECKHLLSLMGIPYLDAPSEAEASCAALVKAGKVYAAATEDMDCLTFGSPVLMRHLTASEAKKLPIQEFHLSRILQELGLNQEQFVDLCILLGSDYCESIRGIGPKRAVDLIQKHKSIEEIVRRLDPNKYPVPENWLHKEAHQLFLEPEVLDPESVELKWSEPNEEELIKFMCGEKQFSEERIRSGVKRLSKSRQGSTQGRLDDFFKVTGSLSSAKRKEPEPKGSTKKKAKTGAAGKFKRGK
# Only a part is listed here, and it is no random draw. The source made the active and inactive calls. Calls come from the whole dose curve; as a rule, active = well fitted inhibition curve with a large enough effect; inconclusive = small, poorly fitted or top-dose-only effect; inactive = no such curve, though single readings can be large or run the other way.
# Biological target: Flap endonuclease 1 (Homo sapiens) (UniProt P39748)
# Assay: qHTS Assay for the Inhibitors of Human Flap endonuclease 1 (FEN1). Note: nearly all actives have a fitted effect of over 65% in size.
# Details: Recombinant FEN1 flap cleavage, fluorescence, 15 min; at 114 µM (top of the series)
# % is set by controls: 0 for no effect and ±100 for the full control effect.
row,SMILES,"activity change, negative = inhibition"
1,O=C(NCC1(N2CCOCC2)CCCCC1)c1ccc([N+](=O)[O-])cc1,inactive: -6.46%
2,CC(C)(C)OC(=O)N1CCC(N(C(=O)c2ccccc2)c2ccc(Cl)cc2)CC1,inactive: -3.08%
3,N#Cc1ccc(C(=O)NCC2(N3CCCCC3)CCCCC2)cc1,inactive: 0.524%
4,O=C(NCC1(N2CCOCC2)CCCCC1)c1ccccc1[N+](=O)[O-],inactive: 2.39%
5,CCOC(=O)C(CC)C1=NC(C)(C)Cc2ccccc21.O=[N+]([O-])c1cc([N+](=O)[O-])c(O)c([N+](=O)[O-])c1 (configuration not stated),inactive: -13.7%
6,c1ccc(CN2CCC(Nc3ccccc3)CC2)cc1,inactive: 7.05%
7,Cc1cc(N(CCCl)CCCl)ccc1C=O,inactive: -2.9%
8,O=C(NCC1(N2CCOCC2)CCCCC1)c1ccccc1,inactive: 22.2%
9,CCCN1CCC(Nc2cc(OC)cc(OC)c2)CC1,inactive: -12.6%
10,CN(C)C1(CNC(=O)c2cccc(C#N)c2)CCCCC1,inactive: -2.07%
11,O=C(NCC1(N2CCOCC2)CCCCC1)c1cc(Br)ccc1Cl,inactive: -5.8%
12,COc1cc(C(=O)NCC2(N3CCOCC3)CCCCC2)cc(OC)c1C,inactive: -7.7%
13,COc1ccc(C(=O)NCC2(N3CCOCC3)CCCCC2)cc1OC,inactive: 15.4%
14,O=Cc1ccc(N(CCCl)CCCl)cc1,inactive: -24.6%
15,N/C(=N\O)c1c(N)no[n+]1[O-],inactive: -5.46%
16,CCOC(=O)N1CCC(Nc2ccc(C)cc2)CC1,inactive: 0.487%
17,CCc1cc(C(=O)NCC2(N3CCCCC3)CCCCC2)sc1C,inactive: 0.756%
18,O=C(O)c1cccc(Nc2c([N+](=O)[O-])cc([N+](=O)[O-])cc2[N+](=O)[O-])c1,inactive: -27.8%
19,CCOc1ncccc1C(=O)NCC1(N2CCOCC2)CCCCC1,inactive: -3.42%
20,CN1CCC(Nc2ccc(F)c(Cl)c2)CC1,inactive: 0.504%
21,ClCCN(CCCl)c1ccccc1,inactive: -2.89%
22,CCCOc1ccc(C(=O)NCC2(N(C)C)CCCCC2)cc1,inactive: 18.6%
23,CC(C)(C)OC(=O)N1CCC(Nc2ccccc2)CC1,inactive: 4.1%

row,SMILES,"activity change, negative = inhibition"
1,O=C(O)C1(Nc2ccccc2)CCN(Cc2ccccc2)CC1,inactive: 1.09%
2,ClCCN(CCCl)c1ccc(C=C2C=CC=C2)cc1,inactive: -1.98%
3,CCC(CO)(C(=O)OC1CN2CCC1CC2)c1ccccc1 (configuration not stated),inactive: -4.84%
4,COc1cc(OC)cc(C(=O)NCC2(N3CCOCC3)CCCCC2)c1,inactive: 1.26%
5,COc1cc(C(=O)NCC2(N3CCOCC3)CCCCC2)cc(OC)c1OC,inactive: -2.46%
6,COc1cccc(C(=O)N(c2cc(C)cc(C)c2)C2CCN(C(=O)OC(C)(C)C)CC2)c1,inactive: -22.1%
7,CN1CCC(Nc2ccc(Cl)cc2)CC1,inactive: 0.728%
8,CN(C)C1(CNC(=O)c2ccc(C(C)(C)C)cc2)CCCCC1,inactive: 17.3%
9,CC(=O)N(c1ccccc1)C1CCNCC1,inactive: -13.9%
10,Cc1ccc(NC2(C#N)CCN(Cc3ccccc3)CC2)cc1,inactive: -9.15%
11,Cc1ccc(C(=O)NCC2(N3CCCCC3)CCCCC2)o1,inactive: 6.61%
12,Fc1ccccc1NC1CCN(Cc2ccccc2)CC1,inactive: 2.81%
13,Cc1ccccc1NC1(C#N)CCN(Cc2ccccc2)CC1,inactive: 6.95%
14,CCN1CCC(Nc2cccc(F)c2)CC1,inactive: 7.72%
15,O=C(NCC1(N2CCCCC2)CCCCC1)c1ccco1,inactive: 0.779%
16,CC(C)(C)c1ccc(C(=O)NCC2(N3CCOCC3)CCCCC2)cc1,inactive: -11.2%
17,CN(C)c1ccc(C(=O)NCC2(N3CCCCC3)CCCCC2)cc1,inactive: -2.55%
18,Cn1c(=O)[nH]cc(N(CCCl)CCCl)c1=O,inactive: 3.42%
19,Cc1ccccc1C(=O)NCC1(N(C)C)CCCCC1,inactive: -1.66%
20,CCOc1ccc(C)cc1CN(CCCl)CCCl,inactive: 2.06%
21,O=C(NCC1(N2CCOCC2)CCCCC1)c1ccc(Cl)cc1,inactive: 13.9%
22,O=C1CCN(Cc2ccccc2)CC1,inactive: 18.3%
23,O=P1(N(CCCl)CCCl)SCCCS1,inactive: -4.24%

row,SMILES,"activity change, negative = inhibition"
1,CCCCOc1ccc(C(=O)NCC2(N3CCOCC3)CCCCC2)cc1,inactive: -7.29%
2,COc1ccc(NC2CCN(CCc3ccccc3)CC2)c(OC)c1,inactive: -5.5%
3,CCOC(=O)N1CCC(Nc2ccc(F)cc2)CC1,inactive: 2.15%
4,COc1ccccc1C(=O)NCC1(N2CCOCC2)CCCCC1,inactive: 13%
5,CCOC(=O)N1CCC(Nc2cccc(C)c2)CC1,inactive: -8.18%
6,COc1cc(C(=O)NCC2(N(C)C)CCCCC2)ccc1OC(F)F,inactive: 17.4%
7,O=C(NCC1(N2CCCCC2)CCCCC1)c1cccs1,inactive: -0.107%
8,COc1ccc(C(=O)NCC2(N3CCCCC3)CCCCC2)cc1,inactive: 1.15%
9,CC(C)(C)OC(=O)N1CCC(N(C(=O)c2ccccc2)c2ccc(F)cc2)CC1,inactive: 0.816%
10,CSc1ccccc1C(=O)NCC1(N2CCCCC2)CCCCC1,inactive: -16.3%
11,O=C(NCC1(N2CCOCC2)CCCCC1)c1cc2ccccc2o1,inactive: 2.1%
12,O=C(NCC1(N2CCCCC2)CCCCC1)c1ccc(Cl)nc1,inactive: -2.24%
13,CCOC(=O)N1CCC(Nc2ccc(OC)cc2)CC1,inactive: -3.46%
14,N#CC1(Nc2ccccc2)CCN(Cc2ccccc2)CC1,inactive: 19.4%
15,O=C(NCC1(N2CCCCC2)CCCCC1)c1ccc(Cl)s1,inactive: 3.32%
16,O=C(OC1CN2CCC1CC2)C1c2ccccc2Oc2ccccc21 (configuration not stated),inactive: 7.68%
17,COc1ccc(Cl)cc1C(=O)NCC1(N2CCOCC2)CCCCC1,inactive: -6.9%
18,COc1ccc(CN(CCCl)CCCl)cc1Cl,inactive: 17.2%
19,O=[N+]([O-])c1cc([N+](=O)[O-])c(OC2CCCCC2O)c([N+](=O)[O-])c1 (configuration not stated),inactive: 1.72%
20,CN(C)c1cccc(C(=O)NCC2(N3CCCCC3)CCCCC2)c1,inactive: -3.63%
21,COc1cc(OC)c(C(=O)NCC2(N(C)C)CCCCC2)cc1OC,inactive: -9%
